Measured values: ChEMBL document CHEMBL2062398, “De novo peptide design with C3a receptor agonist and antagonist activities: theoretical predictions and experimental validation” (J Med Chem, 2012)

Experiments:
[1] = target: T1, C3a anaphylatoxin chemotactic receptor (Homo sapiens, UniProt Q16581); experiment: Agonist activity at human C3a receptor expressed in RBL-2H3 cells assessed as beta-hexosaminidase activity in cell supernatant by degranulation assay; format: functional, cell-based
T1 sequence (Q16581 whole entry): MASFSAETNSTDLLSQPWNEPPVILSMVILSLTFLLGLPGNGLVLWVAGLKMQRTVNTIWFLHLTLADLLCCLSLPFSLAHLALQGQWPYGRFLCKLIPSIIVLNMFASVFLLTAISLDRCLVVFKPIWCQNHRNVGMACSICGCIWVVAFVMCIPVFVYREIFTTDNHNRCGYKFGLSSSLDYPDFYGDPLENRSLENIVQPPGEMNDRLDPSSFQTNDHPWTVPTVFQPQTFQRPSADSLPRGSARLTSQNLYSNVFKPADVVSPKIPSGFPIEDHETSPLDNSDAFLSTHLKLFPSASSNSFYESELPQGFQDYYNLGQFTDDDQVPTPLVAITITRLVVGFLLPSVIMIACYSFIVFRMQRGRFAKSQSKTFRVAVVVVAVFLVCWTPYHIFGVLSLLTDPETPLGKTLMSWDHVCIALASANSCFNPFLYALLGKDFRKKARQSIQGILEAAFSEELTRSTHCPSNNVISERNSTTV
How it was run: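 Transfected RBL-2H3 cells kept in DMEM, 10% FCS, 400 mg/liter G-418, 37°C, 5% CO2. Degranulation read as β-hexosaminidase activity in supernatant. Secretion expressed as percent of maximal response to 200 nM recombinant human C3a or 10 nM FLPLAR. EC50, calculated maximum and SEM from iterative curve fitting.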

[2] = target: T1, C3a anaphylatoxin chemotactic receptor; experiment: Antagonist activity at human C3a receptor expressed in RBL-2H3 cells assessed as beta-hexosaminidase activity in cell supernatant compound preincubated for 10 mins by degranulation assay; format: functional, cell-based
How it was run: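 RBL-2H3 cells expressing human C3aR (DMEM, 10% FCS, G-418, 37°C) were pretreated with peptide for 10 min before 200 nM recombinant human C3a or 10 nM FLPLAR was added. β-Hexosaminidase release in supernatant was measured as percent of the agonist-alone response. IC50, calculated minimum and SEM came from iterative curve fitting.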

[3] = target: T1, C3a anaphylatoxin chemotactic receptor; experiment: Antagonist activity at C3a receptor in dbcAMP differentiated human U937 cells assessed as inhibition of increase in intracellular calcium compound preincubated for 10 mins using Fluo-R staining by microplate reader; format: functional, cell-based, U-937
[4] = target: T1, C3a anaphylatoxin chemotactic receptor; experiment: Partial agonist activity at C3a receptor in dbcAMP differentiated human U937 cells assessed as increase in intracellular calcium using […] staining by microplate reader; format: functional, cell-based, U-937

Question: What does the source list for `CC(=O)N[C@@H](Cc1c[nH]c2ccccc12)C(=O)N[C@@H](Cc1c[nH]c2ccccc12)C(=O)N[C@@H](CC(=O)O)C(=O)N[C@@H](CCCNC(=N)N)C(=O)N[C@@H](CCCNC(=N)N)C(=O)N[C@@H](Cc1c[nH]c2ccccc12)C(=O)N[C@@H](CCCNC(=N)N)C(=O)N[C@@H](C)C(=O)N[C@@H](CO)C(=O)N[C@@H](CCCCN)C(=O)N[C@@H](CC(C)C)C(=O)NCC(=O)N[C@@H](CC(C)C)C(=O)N[C@@H](C)C(=O)N[C@@H](CCCNC(=N)N)C(=O)O`?
Answer: EC50 [1]: 224 nM; IC50 [2]: 15.5 nM; IC50 [3]: 8910 nM

Question: What does the source list for `CC(=O)N[C@@H](Cc1c[nH]c2ccccc12)C(=O)N[C@@H](Cc1c[nH]c2ccccc12)C(=O)N[C@@H](CCC(=O)O)C(=O)N[C@@H](CCCNC(=N)N)C(=O)N[C@@H](CCCNC(=N)N)C(=O)N[C@@H](Cc1c[nH]c2ccccc12)C(=O)N[C@@H](CCCNC(=N)N)C(=O)N[C@@H](C)C(=O)N[C@@H](CO)C(=O)N[C@@H](CCCCN)C(=O)N[C@@H](CC(C)C)C(=O)NCC(=O)N[C@@H](CC(C)C)C(=O)N[C@@H](C)C(=O)N[C@@H](CCCNC(=N)N)C(=O)O`?
Answer: EC50 [1]: 35.5 nM; IC50 [2]: 26.3 nM; EC50 [4]: 661 nM; IC50 [3]: 1120 nM
